Laboratory results: US20060264603A1

Experiments:
[1] = target: human plasma Kallikrein (Calbiochem, San Diego, Calif., # 420302) (human) (UniProt P03952); assay: display-phage binding to kallikrein beads; pfu eluted / input (10^10 pfu)
[2] = target: Trypsin; assay: display-phage binding to protease target; trypsin, two washes
[3] = target: human plasma Kallikrein (Calbiochem, San Diego, Calif., # 420302) (human) (UniProt P03952); assay: display-phage binding to kallikrein beads; fraction bound relative to parental
[4] = target: Trypsin; assay: display-phage binding to protease target
[5] = target: human plasma Kallikrein (Calbiochem, San Diego, Calif., # 420302) (human) (UniProt P03952); assay: display-phage binding to protease target
[6] = target: Plasmin; assay: display-phage binding to protease target
[7] = target: Thrombin; assay: display-phage binding to protease target

Fraction Bound (fraction of input pfu) [1]: 2.5e-06 | relative binding (BPTI relative to LACI) (fold relative to LACI phage display) [2]: 0.8 | Relative Binding (fold relative to LACI(K1) display-phage) [3]: 6 | relative binding (BPTI relative to LACI) (fold relative to LACI phage display) [4]: 0.3 | relative binding (BPTI relative to LACI) (fold relative to LACI phage display) [5]: 1.7 | relative binding (BPTI relative to LACI) (fold relative to LACI phage display) [6]: 88 | relative binding (BPTI relative to LACI) (fold relative to LACI phage display) [7]: 1.1
Substance: bovine pancreatic trypsin inhibitor (BPTI) (from UniProt P00974 36-93)
